Key:
[1] = biological target: Amine oxidase [flavin-containing] A (Homo sapiens, UniProt P21397); assay: Inhibition of human recombinant MAOA using kynuramine as substrate preincubated for 30 mins followed by substrate addition
[2] = biological target: T1, Amine oxidase [flavin-containing] B (Homo sapiens, UniProt P27338); assay: Competitive inhibition of human recombinant MAOB using 0.06 to […] benzylamine as substrate preincubated for 30 mins followed by substrate addition by Lineweaver-Burk plot
[3] = biological target: T1, Amine oxidase [flavin-containing] B; assay: Inhibition of human recombinant MAOB using benzylamine as substrate preincubated for 30 mins followed by substrate addition
[4] = species on record: Homo sapiens; assay: Selectivity index, ratio of IC50 for human recombinant MAOB to IC50 for human recombinant MAOA

Sequences of proteins named here, by UniProt entry; tags and fusion partners are left off.
UniProt P21397, whole entry: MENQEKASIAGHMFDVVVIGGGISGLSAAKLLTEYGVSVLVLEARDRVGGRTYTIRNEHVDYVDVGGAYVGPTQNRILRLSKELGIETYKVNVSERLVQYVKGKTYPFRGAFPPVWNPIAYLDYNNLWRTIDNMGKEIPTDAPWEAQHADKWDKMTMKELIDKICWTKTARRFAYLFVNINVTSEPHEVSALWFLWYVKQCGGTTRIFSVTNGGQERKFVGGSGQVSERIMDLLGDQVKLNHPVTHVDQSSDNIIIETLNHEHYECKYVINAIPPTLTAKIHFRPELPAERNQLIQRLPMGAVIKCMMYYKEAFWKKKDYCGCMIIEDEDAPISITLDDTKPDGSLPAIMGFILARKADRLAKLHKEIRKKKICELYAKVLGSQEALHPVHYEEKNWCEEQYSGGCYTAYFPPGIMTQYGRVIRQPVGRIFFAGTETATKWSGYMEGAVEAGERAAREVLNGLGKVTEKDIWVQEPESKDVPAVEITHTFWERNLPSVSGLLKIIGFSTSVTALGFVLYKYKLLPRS
UniProt P27338, whole entry: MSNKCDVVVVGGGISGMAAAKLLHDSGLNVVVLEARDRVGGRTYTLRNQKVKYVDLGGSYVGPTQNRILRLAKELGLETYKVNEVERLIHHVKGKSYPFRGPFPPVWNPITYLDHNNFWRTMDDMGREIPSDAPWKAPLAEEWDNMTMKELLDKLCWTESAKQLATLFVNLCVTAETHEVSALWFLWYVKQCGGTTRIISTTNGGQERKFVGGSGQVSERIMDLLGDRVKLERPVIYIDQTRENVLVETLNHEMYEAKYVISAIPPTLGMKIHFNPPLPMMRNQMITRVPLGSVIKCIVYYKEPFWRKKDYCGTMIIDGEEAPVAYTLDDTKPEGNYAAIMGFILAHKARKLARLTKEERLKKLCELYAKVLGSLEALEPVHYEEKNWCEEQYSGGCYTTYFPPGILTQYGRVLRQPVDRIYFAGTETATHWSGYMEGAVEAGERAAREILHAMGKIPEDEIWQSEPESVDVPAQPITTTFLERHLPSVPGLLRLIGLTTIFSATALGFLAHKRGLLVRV

| Compound | IC50 [1] [µM] | Ki [2] [µM] | IC50 [3] [µM] | Ratio IC50 [4] |
| --- | --- | --- | --- | --- |
| C#CCN(C)Cc1ccccc1 [PARGYLINE] | > 2 |  |  |  |
| O=C1/C(=C/c2ccc(O)cc2)Oc2cc(O)ccc21 |  | 0.51 | 2.45 | 9.4 |

— ChEMBL document CHEMBL4184231, “Selective inhibition of monoamine oxidase A by hispidol” (Bioorg Med Chem Lett, 2018)
